# Test results reported in EP1951748B1, “HEPATITIS C VIRUS VARIANTS” (Vertex Pharmaceuticals, Inc., priority 2005, dated 2007).
# Tested on: genotype 1 HCV
# Assay: Phase 1b clinical trial (Study VX04-950-101), plasma HCV RNA
# Details: 14 days, one value per subject
structure (smiles),measurement,setting,value
CCC[C@H](NC(=O)[C@@H]1[C@H]2CCC[C@H]2CN1C(=O)[C@@H](NC(=O)[C@@H](NC(=O)c1cnccn1)C1CCCCC1)C(C)(C)C)C(=O)C(=O)NC1CC1 [VX-950],Δ in VL (Log change in HCV RNA from nadir to Day 14 (end of dosing)),dose 450 (mg q8h),2.08 and 2.56 and 2.09
same,Δ in VL (Log change in HCV RNA from nadir to Day 14 (end of dosing)),dose 750 (mg q8h),2.35
same,Δ in VL (Log change in HCV RNA from nadir to Day 14 (end of dosing)),dose 1250 (mg q12h),0.86 and 2.50 and 2.25

# Values joined by “and” are separate entries in the source; they are usually repeats but may differ in a detail not shown here. Equal entries are not always repeated.
